GLP1R ag = activates the human GLP-1 receptor; P43220; HEK293 GLP-1R CRE-luciferase, luminescence, 4-6 h; cells express a hypersensitive GLP-1R form; Potency, µM (doses to about 45.6 µM), usual class: activators; 380,000 tested, 0.007% active; AID 624172
GLP1R inv ag = inverse agonists of human GLP-1 receptor | HEK293 GLP-1R CRE-luciferase, luminescence, 24 h; GLP-1R form is constitutively active | Potency, µM (top dose mostly 38.3 µM), hits mostly inhibitors | 410,000 tested, 1.6% active | P43220; further: nearly all actives have a fitted effect of over 55% in size
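Inverse agonists were sought by their lowering of basal cAMP reporter luciferase output in HEK293 cells stably carrying constitutively active human GLP-1R, after 24 h compound treatment.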
Pin1 inh = inhibitors of human Pin1 | Potency, µM (highest dose often 115 µM), usual class: inhibitors | AID 504891 | Pin1 FP peptide displacement, HiFluor488, 10 min | 390,000 tested, 0.009% active; active means well fitted inhibition curve with a large enough effect in the polarisation, with a control signal flat, not every such curve was filed as active; inconclusive means small, poorly fitted or top-dose-only effect, or effect the other way, or a change in a side signal; inactive means no such curve, though single readings can be large or run the other way; the % refers to the polarisation
PTHR1 agonist = PTHR1 (human) receptor agonism. HEK293 GP2 PTHR1 cells, GloSensor cAMP luminescence, 1 h. Potency, µM (top dose mostly 115 µM), usual class: activators. 410,000 tested, 0.075% active. AID 743266; further: nearly all actives have a fitted effect of over 55% in size
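HEK-293-derived GP2 cells expressing PTHR1 and a GloSensor cAMP reporter, 3,000/well, plated overnight, given luciferin plus IBMX (each 0.5 mM as added) for 1 h at 37 °C, then compound for 1 h at 37 °C. Luminescence was read after 15 min at room temperature.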
miR-21 FLuc = miR-21 reporter, rising signal | HeLa miR-21 FLuc reporter, luciferase, 48 h | Potency, µM (highest dose often 38.3 µM) | 340,000 tested, under 10 active | AID 2288; active = well fitted rising curve with a large enough effect; inconclusive = small, poorly fitted or top-dose-only effect; inactive = no such curve, though single readings can be large or run the other way;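 further: miR-21 action dims this reporter so a rising signal means less miR-21 action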
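Luminescence from a firefly luciferase reporter carrying a miR-21 binding site downstream, stably expressed under a CMV promoter in HeLa cells that make miR-21 endogenously, reports miRNA modulation after 48 h compound exposure up to approximately 40uM final.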
GLP1R cytotox = cytotoxicity in counter-screen for GLP-1R inverse agonists. HEK293 cAMP-luciferase reporter cells, luminescence, 24 h. Potency, µM (doses to about 38.3 µM), hits mostly inhibitors. 410,000 tested, 0.13% active. AID 624418;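 further: loss of luciferase light is scored as toxicity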
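Compound-treated cells are incubated 24 hr at 37 deg C under 5% CO2 after a 12 hour attachment period, then luciferase detection reagent is added and luminescence is measured following 12 min at room temperature; lowered signal indicates toxicity.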
Each line names hits and unclear results; the compound was inactive in the other large screens. The list is not random: actives were taken first. Their share in the collection is about 1.7%. Unless noted, the call rests on the fitted dose curve; in most records, active means well fitted curve in the direction sought with a large enough effect; inconclusive means small, poorly fitted or top-dose-only effect, or another doubt; inactive means no such curve, though single readings can be large; an effect the other way counts as inactive or inconclusive.

COc1ccc(C(O)(C(=O)NNc2ccc(C)cc2)c2cccs2)cc1 (stereo not given)	GLP1R inv ag 2.51µM
CCc1cccc(NC(=O)CC(c2ccc(OC)cc2)N2Cc3ccccc3C2=O)c1 (stereo not given)	none (no result: GLP1R ag)
O=C(Nc1cccc(Cl)c1)N1CCN2C(=O)c3ccccc3C12c1ccccc1 (stereo not given)	GLP1R inv ag 8.91µM, miR-21 FLuc inconclusive, GLP1R cytotox inconclusive
CC(C)(C)c1ccc(NC(=O)CSc2nnc3scc(-c4ccccc4)n23)cc1	none (no result: GLP1R ag)
Cc1ccc2c(=O)cc(C(=O)Nc3c(C(=O)c4ccccc4)oc4ccccc34)oc2c1C	none (no result: GLP1R ag)
O=C(CSc1ccc(Cl)cc1)N1CCN(c2ncc(C(F)(F)F)cc2Cl)CC1	Pin1 inh inconclusive
O=C(CN1CCN(c2ncc(C(F)(F)F)cc2Cl)CC1)N1CCN(c2ncc(C(F)(F)F)cc2Cl)CC1	GLP1R inv ag 4.47µM
Cc1cc2c(s1)c1cnn(Cc3c(C)cc(F)cc3C)c(=O)c1n2C	none (no result: GLP1R ag, GLP1R inv ag, PTHR1 agonist, miR-21 FLuc, GLP1R cytotox)
CCCSc1cc(N2CCOCC2)nc(-c2ccccc2Cl)n1	GLP1R inv ag 10µM
CCSc1cc(N2CCOCC2)nc(-c2ccccc2)n1	none
Cc1cccc(C(=O)Nc2cc(-c3ccccc3F)nn2-c2ccccc2)c1	GLP1R inv ag 10µM (no result: GLP1R ag)
Cc1cc(NC(=O)NCc2ccc3c(c2)CCN3C(=O)c2ccccc2)ccc1Br	none (no result: GLP1R ag)
CCN(CC)C(=O)N1c2ccccc2C=Cc2ccccc21	GLP1R inv ag 5.62µM, miR-21 FLuc inconclusive
NC(=O)N1c2ccccc2C=Cc2ccccc21	none
CC(=O)Nc1cccc(C(=O)N2CCN(S(=O)(=O)c3ccc4ccccc4c3)CC2)c1	none
CC(=O)Nc1cccc(C(=O)N2CCN(S(=O)(=O)c3ccc(C4CCCCC4)cc3)CC2)c1	GLP1R inv ag 5.01µM (no result: miR-21 FLuc)
CCOc1ccc(/C=C/c2nc(C#N)c(N3CCN(c4ccc(OC)cc4)CC3)o2)cc1	none (no result: GLP1R ag)
O=C(CSc1ccc(Cl)cc1)N1CCN(c2c(Cl)cccc2[N+](=O)[O-])CC1	GLP1R inv ag 2.82µM
O=C(/C=C/c1ccc(Cl)cc1)N1CCN(c2c(Cl)cccc2[N+](=O)[O-])CC1	GLP1R inv ag inconclusive
C/C(=N/n1cnnc1)c1cccnc1	PTHR1 agonist 15.8µM
C=CCNC(=S)N/N=C/c1ccc(C(C)(C)C)cc1	GLP1R inv ag 3.55µM, GLP1R cytotox inconclusive
CC(C)(C)c1ccc(/C=N/NC(=S)NCc2ccccc2)cc1	GLP1R inv ag inconclusive, GLP1R cytotox inconclusive
OC(CNc1ccccc1)Cn1ccc2ccccc21 (stereo not given)	GLP1R inv ag 11.2µM, Pin1 inh inconclusive
CCCNCc1cc(Br)ccc1OCC(=O)NCCc1ccccc1	GLP1R cytotox inconclusive
O=C(COc1ccc(Br)cc1CNCCc1ccccc1)NCc1ccccc1	GLP1R inv ag 10µM, GLP1R cytotox inconclusive
Cc1cc(Br)ccc1OCCNCc1ccccc1	GLP1R inv ag 8.91µM
COc1cc(CNCCc2ccccc2)cc(Br)c1OCC(=O)Nc1ccccc1C	GLP1R inv ag 7.94µM, GLP1R cytotox inconclusive
O=C(NCCN1CCOCC1)C1(C(F)(F)F)CC(CCCO)CCCO1 (stereo not given)	none (no result: GLP1R ag, GLP1R inv ag, PTHR1 agonist, miR-21 FLuc, GLP1R cytotox)
CC(C)OC(=O)/C(=C\c1ccccc1)NC(=O)c1ccccc1	none
CC(C)OC(=O)/C(=C\c1cccc2ccccc12)NC(=O)c1ccccc1	GLP1R inv ag 10µM
COc1ccccc1-c1nnc(C2CCN(C(=O)c3cccc(C)c3)CC2)o1	none (no result: GLP1R ag)
Cc1ccc(OCc2nc(-c3ccccn3)n[nH]2)cc1	GLP1R inv ag inconclusive, GLP1R cytotox 2.51µM
COc1ccc(-c2cn3cccnc3n2)cc1NC(=O)c1cc(C)cc(C)c1	none (no result: GLP1R ag)
CC(C)c1cc(NC(=O)c2ccccc2)cc(C(C)C)c1O	GLP1R inv ag 11.2µM
CC(=O)Nc1cc(C(C)C)c(O)c(C(C)C)c1	none
CC(C)c1ccccc1NC(=O)c1cccc(NC(=O)c2ccccc2)c1	GLP1R inv ag 10µM

Bioassay records deposited in PubChem BioAssay by National Center for Advancing Translational Sciences (NCATS).
